Molecules are shown by their SMILES. The list shows a part of the results, in another mix than the full data. Records with an inconclusive call do not appear. Where a call stands in place of a potency, no number is given. Calls of active or inactive are those of the source. Calls come from the whole dose curve; as a rule, active = well fitted inhibition curve with a large enough effect; inconclusive = small, poorly fitted or top-dose-only effect, or effect the other way; inactive = flat fitted curve, though single readings scatter.
Potency is the fitted concentration of half-maximal effect.

A short description of the assay: VP16 counterscreen qHTS for inhibitors of ROR gamma transcriptional activity.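 Note: Gal4-VP16 expression switched on by copper sulfate through the metallothionein promoter; nearly all actives have a fitted effect of over 50% in size.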 The conditions noted are these: Drosophila S2 Gal4-VP16 UAS-luciferase, luminescence, 20 h; series mostly up to 53.6 µM.
Turning to `COc1ccccc1OP(=O)(Nc1ccc(C)cn1)Oc1ccccc1OC`, the Potency result was “inactive”.
Same read-out and setting: with `Cc1ccc(OP(=O)(Nc2nccs2)Oc2ccc(C)cc2)cc1` the entry was “inactive”; with `Cc1ccc(N/C(=N/P(=O)(N2CCOCC2)N2CCOCC2)N2CCOCC2)cc1`, “inactive”.
For the compound `NC(=O)c1cc([N+](=O)[O-])cc([N+](=O)[O-])c1N`, the Potency result was “inactive”.
Same read-out and setting: for `Oc1ccccc1CNc1ccccn1` the value was “inactive”; for `Cc1c2non([O-])c-2c(C)[n+](=O)[n+]1[O-]`, active: 28.2 µM; for `Nc1cc(N)c2nonc2c1[N+](=O)[O-]`, “inactive”.
On the same count and under the same terms, for `CC(C)CC(=O)NC(Sc1ccc(Cl)cc1)C(Cl)(Cl)Cl` (stereo not given) the value was “inactive”; for `CCOP(=O)(Nc1ccccc1)OCC`, “inactive”.
On the same count and under the same terms, for `CN(C(=O)Cc1ccc(Cl)c(Cl)c1)[C@H]1CCCC[C@@H]1N1CCCC1` the value was “inactive”; for `Cc1ccc(NP(=O)(Oc2ccccc2F)Oc2ccccc2F)nc1`, “inactive”; for `O=P(Nc1nc2ccc(Cl)cc2s1)(c1ccccc1)c1ccccc1`, “inactive”.
As to `CC(=O)Nc1ccc([As](=O)(O)O)cc1`, the Potency result was “inactive”.
Regarding `O=C(O)c1ccccc1[As](=O)(O)O`, the Potency result was “inactive”.
On the same count and under the same terms, with `Nc1cccc2ccc([As](=O)(O)O)cc12` the entry was “inactive”.
The same measure, in the same setting: with `CCN(N=Nc1nonc1N)c1nonc1N` the entry was “inactive”; with `O=C(Nc1cc([As](=O)(O)O)ccc1O)c1ccccc1`, “inactive”; with `O=C(O)CNc1ccc([As](=O)(O)O)cc1`, “inactive”.
Same read-out and setting: for `O=[N+]([O-])c1cccc(NC2=NCC(CBr)S2)c1` (stereo not given) the value was “inactive”; for `O=[N+]([O-])c1ncn(CCn2ncnc2[N+](=O)[O-])n1`, “inactive”.
Turning to `CC(C)(C)C(=O)NC(Sc1ccncn1)C(Cl)(Cl)Cl` (stereo not given), the Potency result is “inactive”.
The same measure, in the same setting: for `Cc1ccc(NP(=O)(Oc2ccccc2)Oc2ccccc2)nc1` the value was “inactive”; for `O=[N+]([O-])c1cc([N+](=O)[O-])c(CCNc2ccccc2)c([N+](=O)[O-])c1`, “inactive”; for `CC(=O)N1C2C3N(C(C)=O)C1C1N(C(C)=O)C(C(N1C(C)=O)N3C(C)=O)N2C(C)=O`, “inactive”.
Still for that read-out and setting: with `O=[N+]([O-])c1cccc2n[nH]nc12` the entry was “inactive”; with `COc1ccc(C2=NCC(CBr)S2)cc1` (stereo not given), “inactive”; with `CC(=O)C1=CCCC2CCC1N2` (stereo not given), “inactive”.
Regarding `CC1CCN(C(=O)Oc2c(Cl)cc(Cl)c3cccnc23)CC1`, the Potency entry is “inactive”.
The same measure, in the same setting: for `CC(C)=N/N=C(\N)N[N+](=O)[O-]` the value was “inactive”; for `CCN(/C(=N/P(=O)(N1CCOCC1)N1CCOCC1)N1CCOCC1)c1ccc(OC)cc1`, “inactive”.
As for `Nc1ccc([As](=O)(O)c2ccc(N)cc2)cc1`, the Potency result was “inactive”.
With `c1nnnn1CCn1cnnn1`, the Potency entry was “inactive”.
Take `O=P(Nc1nccs1)(c1ccccc1)c1ccccc1`: the Potency entry is “inactive”.
The same measure, in the same setting: for `CC(C)C(=O)NC(Sc1ccccc1)C(Cl)(Cl)Cl` (stereo not given) the value was “inactive”; for `CN(C(=O)Cc1ccccc1)[C@H]1CC[C@@]2(CCCO2)C[C@@H]1N1CCCC1`, “inactive”; for `O=P(Nc1nc2ccccc2s1)(c1ccccc1)c1ccccc1`, “inactive”.
The same measure, in the same setting: with `C[C@H]1OP(=O)(Oc2ccccc2)[C@H](O)[C@H](O)[C@H]1N=[N+]=[N-]` (stereo not given in full) the entry was “inactive”; with `CN(C)C1(CNC(=O)c2ccc(Cl)c(S(N)(=O)=O)c2)CCCCC1`, “inactive”.
Consider `O=P(Nc1ccccn1)(c1ccc(Br)cc1)c1ccc(Br)cc1`, for which the activity, negative = inhibition is inactive: 7.35% [at 10 µM].
As to `O=C(OC1CN2CCC1CC2)c1cccc(Cl)c1` (stereo not given), the Potency entry was “inactive”.
On the same count and under the same terms, for `C(Cc1nn[nH]n1)Cc1nn[nH]n1` the value was “inactive”; for `Nc1ccc([As](=O)(O)c2ccc([N+](=O)[O-])cc2)cc1`, “inactive”; for `O=[As](O)(c1ccccc1)c1ccc(O)cc1`, “inactive”.
On the same count and under the same terms, for `O=[N+]([O-])c1ncn(CCn2cnc([N+](=O)[O-])n2)n1` the value was “inactive”; for `O=[N+]([O-])c1ccc(O)c(/C=N/Nc2ccc([N+](=O)[O-])cc2[N+](=O)[O-])c1`, active: 3.55 µM; for `c1ccc(-c2nn[nH]n2)c(-c2nn[nH]n2)c1`, “inactive”.
Still for that read-out and setting: for `CCOC(=O)NC(Sc1ccccc1)C(Cl)(Cl)Cl` (stereo not given) the value was “inactive”.
In the case of `Cc1ccc(NP(=O)(Oc2cccc(C)c2)Oc2cccc(C)c2)nc1`, the Potency entry is “inactive”.
Same read-out and setting: with `O=C(NC1CCS(=O)(=O)C1)NP(=S)(Oc1ccccc1)Oc1ccccc1` (stereo not given) the entry was “inactive”.
As to `CCNC(=S)/N=C(\N)N[N+](=O)[O-]`, the activity, negative = inhibition is inactive: -9.11% [at 10 µM].
Consider `Cc1ccccc1OP(=O)(Nc1ccccn1)Oc1ccccc1C`, for which the Potency result was “inactive”.
The same measure, in the same setting: for `O=c1c2cc([N+](=O)[O-])ccc2[nH]c2c([N+](=O)[O-])cc([N+](=O)[O-])cc12` the value was active: 0.141 µM; for `CN(C)C(=O)Oc1noc2ccccc12`, “inactive”.
On the same count and under the same terms, for `O=C(OC1CN2CCC1CC2)c1ccccc1` (stereo not given) the value was “inactive”; for `CCC(=O)N1C2C3N(C(=O)CC)C1C1N(C(=O)CC)C(C(N1C(=O)CC)N3C(=O)CC)N2C(=O)CC`, “inactive”; for `COC(=O)c1cc2c(s1)N=C(c1ccccc1)N(C)P2(=O)N1CCOCC1` (stereo not given), “inactive”.
Same read-out and setting: with `Cc1ccc(OP(=O)(Nc2ccccn2)Oc2ccc(C)cc2)cc1` the entry was “inactive”; with `CC(=O)NC(SC(=S)N(CC(C)C)CC(C)C)C(Cl)(Cl)Cl` (stereo not given), “inactive”.
Regarding `CC(C)(C)C(=O)NC(Sc1ccccc1)C(Cl)(Cl)Cl` (stereo not given), the Potency entry is “inactive”.
For `O=P1(Nc2nc3ccc(Cl)cc3s2)COc2ccccc2O1` (stereo not given), the Potency entry was “inactive”.
On the same count and under the same terms, for `CC(=O)Nc1ccc([As](=O)(O)O)c(O)c1` the value was “inactive”.
Same read-out and setting: for `CC(=O)Nc1ccc(Oc2c([N+](=O)[O-])cc([N+](=O)[O-])cc2[N+](=O)[O-])cc1` the value was “inactive”; for `C[C@H]1OP(=O)(Oc2ccccc2)C[C@@H]2O[C@@H]21` (stereo not given in full), “inactive”; for `C[C@@H]1C=CCP(=O)(Oc2ccccc2)O1` (stereo not given in full), “inactive”.
On the same count and under the same terms, with `CC(=O)c1ccc(N2CC2c2ccncc2)cc1` (stereo not given) the entry was “inactive”.
